Experimental findings from ChEMBL document CHEMBL1145102, “Novel hexahydrospiro[piperidine-4,1'-pyrrolo[3,4-c]pyrroles]: highly selective small-molecule nociceptin/orphanin FQ receptor agonists” (2003) are described below.

Several values for one entry are separate records, joined by “and”; a condition that tells them apart may be missing. Identical values can stand only once.

One assay has as its target Mu-type opioid receptor (Homo sapiens, UniProt P35372). Kind of assay: Inhibition of DAMGO binding to human Opioid receptor mu 1.
The target of assay [1] is Kappa-type opioid receptor (Homo sapiens, UniProt P41145). Kind of assay: Inhibition of naloxone binding to human Opioid receptor kappa 1.
For the next assay, the target named is Nociceptin receptor (Homo sapiens, UniProt P41146). Kind of assay: Inhibition of N/OFQ binding to human Orphanin FQ receptor (Nociceptin/Orphanin).
The target in assay [2] is Delta-type opioid receptor (Homo sapiens, UniProt P41143). Kind of assay: Inhibition of deltorphin II binding to human Opioid receptor delta 1.

For `CC(C)[C@H]1CC[C@@H](N2CCC3(CC2)[C@@H]2CN(CCO)C[C@@H]2CN3c2ccccc2)CC1`, the Log Ki on Mu-type opioid receptor is -6.76; in assay [1], -6.88; at Nociceptin receptor, -9.11; in assay [2], -6.03.
Regarding `CC(C)[C@H]1CC[C@@H](N2CCC3(CC2)[C@@H]2CN(Cc4ccccc4)C[C@@H]2CN3c2ccccc2)CC1`, the Log Ki is -6.81 on Mu-type opioid receptor, -6.81 in assay [1], -8.67 on Nociceptin receptor and -6.04 in assay [2].
With `CN1C[C@@H]2CN(c3ccccc3)C3(CCN([C@H]4CC[C@@H]5CCCC[C@@H]5C4)CC3)[C@@H]2C1`, the Log Ki was -6.38 at Mu-type opioid receptor, -6.88 in assay [1], -9.28 at Nociceptin receptor and -5.99 in assay [2].
On to `CC(C)[C@H]1CC[C@@H](N2CCC3(CC2)[C@@H]2CN(c4ccccc4)C[C@@H]2CN3c2ccccc2)CC1`, for which the Log Ki at Mu-type opioid receptor is -6.87; in assay [1] it was -6.29; at Nociceptin receptor, -8.78; in assay [2], -6.66.
Regarding `CN1C[C@@H]2CN(c3ccccc3)C3(CCN(C4CCCCCCCCC4)CC3)[C@@H]2C1`, the Log Ki at Mu-type opioid receptor was -7.06; in assay [1], -7.57; at Nociceptin receptor, -9.35; in assay [2] it was -6.43.
Take `CC(C)[C@H]1CC[C@@H](N2CCC3(CC2)[C@@H]2CN(CC4CC4)C[C@@H]2CN3c2ccc(F)cc2)CC1`: the Log Ki on Mu-type opioid receptor was -6.18; in assay [1], -6.77; at Nociceptin receptor, -8.78; in assay [2] it was -5.97.
In the same order, the values of `CC(C)[C@H]1CC[C@@H](N2CCC3(CC2)[C@@H]2CNC[C@@H]2CN3c2ccccc2)CC1` are -6.3, -6.59, -8.66 and -5.75.
On the same counts, the results for `CC(C)[C@H]1CC[C@@H](N2CCC3(CC2)[C@@H]2CN(CCN4CCOCC4)C[C@@H]2CN3c2ccccc2)CC1` are -6.75, -6.83, -8.68 and -5.53.
In the same order, the values of `CN1C[C@@H]2CN(c3ccccc3)C3(CCN(C4CCCCCCCC4)CC3)[C@@H]2C1` are -6.14, -7.25, -9.19 and -6.05.
As to `CC(C)[C@H]1CC[C@@H](N2CCC3(CC2)[C@@H]2CN(C)C[C@@H]2CN3c2ccccc2)CC1`, the Log Ki on Mu-type opioid receptor is -6.47 and -6.27; in assay [1], -6.55 and -6.51; on Nociceptin receptor it was -8.92 and -9.26; in assay [2], -5.63 and -5.67.
Consider `CCCCN1C[C@@H]2CN(c3ccccc3)C3(CCN([C@H]4CC[C@@H](C(C)C)CC4)CC3)[C@@H]2C1`, for which the Log Ki at Mu-type opioid receptor is -6.56; in assay [1] it was -6.6; on Nociceptin receptor, -9.18; in assay [2], -6.41.
